t1/2 and beta t1/2 data for 2 molecules are collected here from ChEMBL document CHEMBL1152978 (J Med Chem, 2009).

The nature of series [1]: Chemical stability assessed as half life at pH 7.4 by UV-HPLC analysis. To be noted: buffer. It is filed as physicochemical.
A further series relates to Plasma. Briefly: Metabolic stability in human plasma assessed as elimination half life at pH 7.4. Format: ADME, cell-free.

As for `O=C(O[C@H]1C[N+]2(CCc3ccccc3)CCC1CC2)C(O)(c1cccs1)c1cccs1.[Br-]`, in series [1], the t1/2 is 56 min. Further, the beta t1/2 with Plasma came to 7.9 min. On to `C[N+]12CCC(CC1)[C@@H](OC(=O)C(O)(c1cccs1)c1cccs1)C2.[Br-]`, for which the beta t1/2 with Plasma came to 3.6 min.
